Data on one molecule can be found in BigSolDB 2.1.

Turning to `Cc1ccc(N)c([N+](=O)[O-])c1`, the solubility (mole fraction) (in general, the moles of solute divided by all moles in the saturated solution) turned out to be 0.0248 (in methanol, 310.65 K) and 0.0301 (in n-propanol, 308.15 K).
